This is an account of results in paper PMC3282105, “Antitumoral activity of allosteric inhibitors of protein kinase CK2” (2011).

The chains behind the UniProt entries cited, without tags or fusion partners. Residues count along the entry.
UniProt P68400, 1-335 limits assumed: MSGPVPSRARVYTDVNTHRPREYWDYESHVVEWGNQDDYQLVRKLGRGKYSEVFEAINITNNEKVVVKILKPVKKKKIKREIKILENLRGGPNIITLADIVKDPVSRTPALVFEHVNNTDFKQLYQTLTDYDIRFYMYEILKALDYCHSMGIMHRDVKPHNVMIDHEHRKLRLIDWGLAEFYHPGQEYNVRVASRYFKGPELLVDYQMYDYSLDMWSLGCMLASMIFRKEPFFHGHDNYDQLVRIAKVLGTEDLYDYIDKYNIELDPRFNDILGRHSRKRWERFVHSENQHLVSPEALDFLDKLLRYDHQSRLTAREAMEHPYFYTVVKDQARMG

In the experiment the target is CK2α (Homo sapiens, UniProt P68400). The experiment is described as follows: radiometric kinase assay dose-response, Lineweaver-Burk kinetics, reversibility by gel filtration; SAXS of the complex.

The compound `O=[N+]([O-])c1ccc2c(N=Nc3c(O)ccc4ccccc34)c(O)cc(S(=O)(=O)O)c2c1` gave a 50% inhibitory concentration (IC50) of 5 µM.
